One test concerns the target human recombinant Btk (Homo sapiens (Human), UniProt Q06187). Put plainly: Human Recombinant Btk enzyme assay. It is filed as biochemical.
Another test concerns the target Jak2 tyrosine kinase (Homo sapiens (Human), UniProt O60674). Put plainly: Jak2 tyrosine kinase assay. In kind it is biochemical. The conditions noted are these: for Ratio of Jak2/Btk IC50 values: selectivity of Btk over Jak2.

Protein sequences, listed by entry. Tags and fused reporters are not part of them. Lines headed by an entry give the natural chain unless they say otherwise; changes in a name come on top.
UniProt Q06187: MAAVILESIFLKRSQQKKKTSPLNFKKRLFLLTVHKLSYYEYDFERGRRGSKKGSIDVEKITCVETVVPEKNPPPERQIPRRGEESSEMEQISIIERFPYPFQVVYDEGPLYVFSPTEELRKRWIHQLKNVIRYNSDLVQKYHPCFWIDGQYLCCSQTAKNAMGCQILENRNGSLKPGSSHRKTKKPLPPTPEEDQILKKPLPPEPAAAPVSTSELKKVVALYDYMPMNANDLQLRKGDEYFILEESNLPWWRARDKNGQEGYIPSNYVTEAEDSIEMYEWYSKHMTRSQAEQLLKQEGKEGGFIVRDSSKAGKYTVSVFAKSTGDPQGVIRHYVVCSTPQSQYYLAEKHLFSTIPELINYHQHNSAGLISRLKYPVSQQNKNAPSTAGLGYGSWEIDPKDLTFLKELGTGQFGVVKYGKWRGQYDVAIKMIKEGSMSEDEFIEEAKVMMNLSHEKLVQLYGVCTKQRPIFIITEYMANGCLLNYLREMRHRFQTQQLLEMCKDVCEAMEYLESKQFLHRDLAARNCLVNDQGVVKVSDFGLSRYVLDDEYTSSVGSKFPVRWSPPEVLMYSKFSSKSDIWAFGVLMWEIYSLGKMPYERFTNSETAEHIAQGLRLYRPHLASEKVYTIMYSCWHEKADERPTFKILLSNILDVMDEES
UniProt O60674: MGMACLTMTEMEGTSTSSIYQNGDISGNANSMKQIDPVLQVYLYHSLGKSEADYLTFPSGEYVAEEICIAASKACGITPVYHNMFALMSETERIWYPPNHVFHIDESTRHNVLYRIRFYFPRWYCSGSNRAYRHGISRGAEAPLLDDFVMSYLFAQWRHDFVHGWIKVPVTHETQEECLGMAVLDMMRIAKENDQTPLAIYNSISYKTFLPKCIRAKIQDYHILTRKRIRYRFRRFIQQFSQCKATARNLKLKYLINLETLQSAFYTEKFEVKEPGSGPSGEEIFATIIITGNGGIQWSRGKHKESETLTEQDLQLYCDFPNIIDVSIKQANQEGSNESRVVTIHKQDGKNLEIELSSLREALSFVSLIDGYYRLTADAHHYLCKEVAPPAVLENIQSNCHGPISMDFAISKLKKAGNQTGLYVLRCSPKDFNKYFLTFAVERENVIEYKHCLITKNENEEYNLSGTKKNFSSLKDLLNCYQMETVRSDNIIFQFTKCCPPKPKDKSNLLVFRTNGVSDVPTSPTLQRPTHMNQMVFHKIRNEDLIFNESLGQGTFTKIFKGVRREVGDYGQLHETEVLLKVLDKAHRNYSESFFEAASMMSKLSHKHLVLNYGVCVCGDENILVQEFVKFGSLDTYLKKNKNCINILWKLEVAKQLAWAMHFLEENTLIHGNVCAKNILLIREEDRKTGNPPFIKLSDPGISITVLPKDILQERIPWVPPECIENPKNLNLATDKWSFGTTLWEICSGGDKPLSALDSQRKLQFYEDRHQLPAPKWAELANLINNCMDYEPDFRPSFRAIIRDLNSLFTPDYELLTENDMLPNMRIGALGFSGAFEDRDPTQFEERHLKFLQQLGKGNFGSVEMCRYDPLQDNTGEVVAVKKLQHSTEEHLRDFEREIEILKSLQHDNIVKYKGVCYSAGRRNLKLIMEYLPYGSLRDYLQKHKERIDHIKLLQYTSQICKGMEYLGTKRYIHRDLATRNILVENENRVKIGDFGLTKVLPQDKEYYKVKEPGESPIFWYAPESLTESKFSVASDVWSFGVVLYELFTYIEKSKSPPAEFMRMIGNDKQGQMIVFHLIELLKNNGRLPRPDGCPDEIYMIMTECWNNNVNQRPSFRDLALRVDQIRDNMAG

Each structure is given as a SMILES string. Where only a bound is given, the exact number is not on record here.

As for `Cc1c(-c2c(Cl)cc(C(N)=O)c3[nH]c4c(c23)CC[C@H](C(C)(C)O)C4)cccc1-n1c(=O)c2cccc(F)c2n(C)c1=O` (atropisomer, axis not shown) [Example 26, 6-Chloro-5-(R)-(3-(S)-(8-fluoro-1-methyl-2,4-dioxo-1,2-dihydroquinazolin-3(4H)-yl)-2-methylphenyl)-2-(S)-(2-hydroxypropan-2-yl)-2,3,4,9-tetrahydro-1H-carbazole-8-carboxamide], at human recombinant Btk, the IC50 (in general, the midpoint of a concentration-inhibition curve) is 1.2 nM. Moreover, the “Ratio of Jak2/Btk IC50 values” at Jak2 tyrosine kinase is given as 6300.

As for `Cc1c(-c2c(F)cc(C(N)=O)c3[nH]c4c(c23)CC[C@@H](C(C)(C)O)C4)cccc1-n1c(=O)c2cccc(F)c2n(C)c1=O` (atropisomer, axis not shown) [Example 27, 6-Fluoro-5-(R)-(3-(S)-(8-fluoro-1-methyl-2,4-dioxo-1,2-dihydroquinazolin-3(4H)-yl)-2-methylphenyl)-2-(R)-(2-hydroxypropan-2-yl)-2,3,4,9-tetrahydro-1H-carbazole-8-carboxamide], the “Ratio of Jak2/Btk IC50 values” on Jak2 tyrosine kinase was more than 910.

In the case of `Cc1c(-c2c(C#N)cc(C(N)=O)c3[nH]c4cc(C(C)(C)O)ccc4c23)cccc1-n1c(=O)c2cccc(F)c2n(C)c1=O` (single isomer, unassigned) [Example 16], the “Ratio of Jak2/Btk IC50 values” on Jak2 tyrosine kinase is recorded as 7000.

Consider `Cc1c(-c2c(F)cc(C(N)=O)c3[nH]c4c(c23)CC[C@H](C(C)(C)O)C4)cccc1-n1c(=O)cc2c(Cl)cccn2c1=O` (single isomer, unassigned) [Example 64], for which, on human recombinant Btk, the 50% inhibitory concentration (IC50) was determined as 0.34 nM.

Take `Cc1c(-c2c(F)cc(C(N)=O)c3[nH]c4c(c23)CC[C@H](C(C)(C)O)C4)cccc1-n1c(=O)cc2c(Cl)cccn2c1=O` (single isomer, unassigned) [Example 65]: the IC50 on human recombinant Btk is 0.46 nM. `Cc1c(-c2ccc(C(N)=O)c3[nH]c4cc(C(C)(C)O)ccc4c23)cccc1-n1cnc2ccccc2c1=O` [Comparative Example 75, 7-(2-Hydroxypropan-2-yl)-4-(2-methyl-3-(4-oxoquinazolin-3(4H)-yl)phenyl)-9H-carbazole-1-carboxamide, reference compound] yielded an IC50 against Jak2 tyrosine kinase of 240 nM.

Take `Cc1c(-c2c(Cl)cc(C(N)=O)c3[nH]c4c(c23)CC[C@H](C(C)(C)O)C4)cccc1-n1c(=O)c2cccc(F)c2n(C)c1=O` [Example 25, 6-Chloro-5-(3-(8-fluoro-1-methyl-2,4-dioxo-1,2-dihydroquinazolin-3(4H)-yl)-2-methylphenyl)-2-(S)-(2-hydroxypropan-2-yl)-2,3,4,9-tetrahydro-1H-carbazole-8-carboxamide]: the IC50 on human recombinant Btk is 0.9 nM.

The record behind these values is patent US9334290B2, “Substituted tetrahydrocarbazole and carbazole carboxamide compounds” (Bristol-Myers Squibb Company, priority 2013, dated 2016).
